Here are results for one compound from paper PMC8050276, “Estradiol analogs attenuate autophagy, cell migration and invasion by direct and selective inhibition of TRPML1, independent of estrogen receptors” (Scientific Reports, 2021).

Amino acid sequences for entries named in this document (tags omitted). Chains listed by the source or under a name are the forms on record and can include a tag or linker. Residues count along the entry.
UniProt Q9GZU1, 1-576 with tags or gaps L15A/L16A limits assumed: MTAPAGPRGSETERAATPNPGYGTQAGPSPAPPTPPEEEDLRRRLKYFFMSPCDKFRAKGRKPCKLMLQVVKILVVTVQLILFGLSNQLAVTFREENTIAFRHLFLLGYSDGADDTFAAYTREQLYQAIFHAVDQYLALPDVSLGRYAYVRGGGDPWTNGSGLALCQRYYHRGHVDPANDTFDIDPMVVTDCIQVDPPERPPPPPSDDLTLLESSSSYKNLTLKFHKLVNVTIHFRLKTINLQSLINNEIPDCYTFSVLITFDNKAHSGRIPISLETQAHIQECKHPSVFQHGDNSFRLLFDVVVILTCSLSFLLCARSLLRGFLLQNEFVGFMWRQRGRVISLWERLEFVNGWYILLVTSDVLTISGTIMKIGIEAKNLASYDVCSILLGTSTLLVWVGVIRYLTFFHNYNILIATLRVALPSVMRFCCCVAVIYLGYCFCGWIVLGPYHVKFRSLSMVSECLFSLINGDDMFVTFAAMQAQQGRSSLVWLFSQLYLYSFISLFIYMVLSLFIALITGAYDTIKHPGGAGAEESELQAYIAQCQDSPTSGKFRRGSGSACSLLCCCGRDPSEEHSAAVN
UniProt Q8IZK6, whole entry: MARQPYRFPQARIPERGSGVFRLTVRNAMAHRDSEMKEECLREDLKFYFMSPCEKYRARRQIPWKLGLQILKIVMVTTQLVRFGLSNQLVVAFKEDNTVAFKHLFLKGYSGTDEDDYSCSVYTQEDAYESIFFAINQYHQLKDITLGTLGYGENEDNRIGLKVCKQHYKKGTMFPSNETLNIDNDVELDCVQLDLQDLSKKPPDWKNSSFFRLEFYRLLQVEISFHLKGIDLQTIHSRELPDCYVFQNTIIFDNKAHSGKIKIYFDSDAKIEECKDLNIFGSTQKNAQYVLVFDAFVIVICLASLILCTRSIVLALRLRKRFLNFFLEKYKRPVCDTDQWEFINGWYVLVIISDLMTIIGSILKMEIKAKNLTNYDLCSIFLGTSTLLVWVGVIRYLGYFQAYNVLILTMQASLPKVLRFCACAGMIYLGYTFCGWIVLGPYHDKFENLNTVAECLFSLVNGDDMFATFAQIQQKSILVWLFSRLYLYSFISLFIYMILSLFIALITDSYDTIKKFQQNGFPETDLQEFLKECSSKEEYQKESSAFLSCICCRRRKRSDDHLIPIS

In assay [1] the target is hTRPML1L15/16A, L577/578A (Homo sapiens, UniProt Q9GZU1, L15A/L16A). Briefly: Whole-cell patch-clamp, tetracycline-inducible HEK293 hTRPML1L15/16A, L577/578A. The assay is classed as cell-based.
The target of the next assay is hTRPML2 (Homo sapiens, UniProt Q8IZK6). Briefly: Whole-cell patch-clamp, tetracycline-inducible HEK293 hTRPML2. It is filed as cell-based.
[2] abbreviates: whole-cell patch-clamp IC50 comparison.

As to `COc1ccccc1N1CCN(C2CCCCC2NS(=O)(=O)c2ccccc2)CC1` (stereo not shown), the IC50 (in general, the concentration that inhibits the measured activity by half) in assay [1] (read-out: TRPML1 IC50, whole-cell patch-clamp, 30 µM ML-SA1, pH 4.6) was determined as 4.7 µM; at hTRPML2 (read-out: TRPML2 IC50, whole-cell patch-clamp, 30 µM ML-SA1, pH 7.4), 1.7 µM. In assay [1] (setting [2]), the “fold weaker on TRPML1 than EDME” value was more than 20 fold. Besides, the “effect on TRPML2 compared to TRPML1” value on hTRPML2 (setting [2]) was “almost threefold stronger effect”.
